# Experiments:
# [1] = target: T1, OAT3 (Homo sapiens, UniProt Q8TCC7); details: cited from earlier work
# T1 sequence (Q8TCC7 1-542): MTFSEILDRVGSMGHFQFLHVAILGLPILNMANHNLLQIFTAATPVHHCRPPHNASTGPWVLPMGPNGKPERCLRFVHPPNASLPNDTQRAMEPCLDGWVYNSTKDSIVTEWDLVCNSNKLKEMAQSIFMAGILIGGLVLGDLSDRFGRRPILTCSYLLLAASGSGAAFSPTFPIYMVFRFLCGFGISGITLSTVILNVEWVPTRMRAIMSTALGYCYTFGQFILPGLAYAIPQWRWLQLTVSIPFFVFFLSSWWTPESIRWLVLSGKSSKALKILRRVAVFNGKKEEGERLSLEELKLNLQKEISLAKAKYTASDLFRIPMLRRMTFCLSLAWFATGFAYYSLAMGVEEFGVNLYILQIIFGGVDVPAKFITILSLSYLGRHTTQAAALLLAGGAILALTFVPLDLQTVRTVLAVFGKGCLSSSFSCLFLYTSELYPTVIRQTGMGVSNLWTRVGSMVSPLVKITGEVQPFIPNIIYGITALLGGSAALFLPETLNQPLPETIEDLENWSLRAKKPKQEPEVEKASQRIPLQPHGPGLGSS
# [2] = target: T1, OAT3; assay: Uptake of 3H-PAH into Xenopus oocytes injected with OAT3 cRNA; assay type: cell-based; set-up: expressed in transfected cells; host or cells: Xenopus oocytes injected with in vitro transcribed OAT3 cRNA; details: versus noninjected control oocytes; FIG. 2
# Protocol: To assess transport function of a specific transporter protein, it can be desirable to clone the cDNA and express the protein in cells that have low endogenous transport activity. Human OAT3 was cloned by PCR, fully sequenced, and subcloned into plasmids that can be used for expression in mammalian cells or Xenopus oocytes. For expression in Xenopus oocytes, in vitro OAT3 cRNA was prepared and injected into defoliculated oocytes.
# To measure directly the uptake of possible substrates, an oocyte uptake assay can be performed in which uptake of compounds is measured by mass spectroscopy. For example, uptake of PAH can be measured. Oocytes injected with OAT3 cRNA can be incubated at 16-18° C. until maximal transporter expression is reached. Oocytes from the same batch, not injected with cRNA, can be used as a control. A 0.5 mM solution of PAH can be prepared in oocyte ringers (ND96) buffer (90 mM NaCl, 10 mM HemiNa HEPES, 2 mM KCl, 1 mM MgCl2, 1.8 mM CaCl2, pH adjusted to 7.4) containing 0.5% bovine serum albumin. The PAH is, for example, administered to pools of 8 oocytes for a 20 minute duration. Following the incubation, the pools of oocytes are washed with 0.5% BSA ND96 buffer and separated into subpools containing, for example, 4 oocytes each. […] Approximately 110 μl of lysate is removed from the tubes and placed in a 96-well plate and analyzed for PAH concentration by LC-MS-MS.
structure (smiles),measurement,setting,value
Nc1ccc(C(=O)NCC(=O)O)cc1 [Para-amino-hippurate],Reported Affinity for OAT3,[1],0.2 mM
same,uptake into oocytes expressing OAT3,[2],higher levels of ^3H-PAH uptake than noninjected controls
